Assay results reported in patent publication US9738628B2, “Substituted 1H-indazol-1-OL analogs as inhibitors of beta catenin/Tcf protein-protein interactions” (University of Utah Research Foundation, priority 2012, dated 2017).

Sequences of proteins named here, by UniProt entry; tags and fusion partners are left off. Residues count along the entry.
UniProt P35222, 138-686: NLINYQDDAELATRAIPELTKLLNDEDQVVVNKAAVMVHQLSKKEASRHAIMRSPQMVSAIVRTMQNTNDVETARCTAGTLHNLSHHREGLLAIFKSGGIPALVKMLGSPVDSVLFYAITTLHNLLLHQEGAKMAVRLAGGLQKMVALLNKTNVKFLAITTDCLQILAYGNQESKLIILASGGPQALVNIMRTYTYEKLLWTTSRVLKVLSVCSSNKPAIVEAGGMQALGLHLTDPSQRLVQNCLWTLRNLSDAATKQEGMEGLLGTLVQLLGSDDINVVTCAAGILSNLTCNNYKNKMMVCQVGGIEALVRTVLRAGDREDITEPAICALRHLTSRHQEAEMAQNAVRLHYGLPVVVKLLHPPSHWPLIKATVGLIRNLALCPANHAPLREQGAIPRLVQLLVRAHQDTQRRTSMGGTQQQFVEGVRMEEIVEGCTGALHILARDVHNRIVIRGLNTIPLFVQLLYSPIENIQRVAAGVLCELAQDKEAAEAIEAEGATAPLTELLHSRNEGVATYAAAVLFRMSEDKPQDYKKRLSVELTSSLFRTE

Molecular target: β-catenin/Tcf4 (Homo sapiens (Human), UniProt P35222)
Assay: Fluorescence polarization (FP) competitive inhibition assay, β-catenin/Tcf4
Type: binding
Procedure: Experiments were performed in 96-well Microfluor 2 black plates (Waltham, Mass.), and the samples were read by a Synergy 2 plate reader (Biotek, Winooski, Vt.). […] The final reaction volume is 100 μL.

With “5-(2-(2H-tetrazol-5-yl)ethyl)-1H-indazole [Compound 16]” the Ki was 180 ± 2.91 µM.
